The source of these data is patent US20060094649A1, “Hla-a1,-a2,-a3,-a24,-b7, and-b44 tumor associated antigen peptides and compositions” (priority 2002, published 2006).

The subject of this assay is HLA-B44 supertype molecules. The experiment in a line: HLA-B44 supertype cross-binding. Also noted: species or system human. The settings on record: number of the six B44 supertype alleles bound.

`CC[C@H](C)[C@H](NC(=O)[C@H](CO)NC(=O)[C@H](CCC(=O)O)NC(=O)[C@@H](N)CC(C)C)C(=O)N[C@@H](CC(C)C)C(=O)N[C@@H](CCCNC(=N)N)C(=O)N[C@@H](CCCNC(=N)N)C(=O)N[C@@H](CCCNC(=N)N)C(=O)N[C@@H](Cc1ccccc1)C(=O)N[C@H](C(=O)O)[C@@H](C)O` [compound 535] yielded a Degeneracy of 2.

`CC(C)C[C@H](NC(=O)[C@@H]1CCCN1C(=O)[C@H](CO)NC(=O)[C@H](CCCNC(=N)N)NC(=O)[C@@H]1CCCN1C(=O)[C@H](C)NC(=O)[C@H](CCC(=O)O)NC(=O)[C@H](CCC(=O)O)NC(=O)[C@H](CCC(=O)O)NC(=O)[C@@H](N)CO)C(=O)N[C@@H](C)C(=O)O` [compound 538] returned a Degeneracy of 2.

As to `CC(C)[C@H](NC(=O)[C@H](CC(=O)O)NC(=O)[C@H](CO)NC(=O)CNC(=O)[C@H](C)NC(=O)CNC(=O)[C@H](CCC(=O)O)NC(=O)[C@@H](N)CO)C(=O)N[C@@H](Cc1ccccc1)C(=O)N[C@@H](CC(=O)O)C(=O)NCC(=O)O` [compound 539], the Degeneracy was 2.

`CC(C)C[C@H](NC(=O)[C@H](Cc1ccc(O)cc1)NC(=O)[C@H](CCC(=O)O)NC(=O)[C@@H]1CCCN1)C(=O)N[C@H](C(=O)N1CCC[C@H]1C(=O)N[C@@H](CCC(N)=O)C(=O)NCC(=O)NCC(=O)N[C@@H](C)C(=O)N[C@@H](C)C(=O)O)[C@@H](C)O` [compound 540]: the Degeneracy amounted to 2.

Take `C[C@H](NC(=O)CNC(=O)[C@H](CCCNC(=N)N)NC(=O)[C@H](CCC(=O)O)NC(=O)[C@@H]1CCCN1)C(=O)N1CCC[C@H]1C(=O)N1CCC[C@H]1C(=O)N[C@@H](CO)C(=O)N[C@H](C(=O)O)[C@@H](C)O` [compound 541]: the Degeneracy came to 2.

`CSCC[C@H](NC(=O)[C@H](CC(=O)O)NC(=O)[C@H](CC(C)C)NC(=O)[C@H](Cc1c[nH]cn1)NC(=O)[C@@H](NC(=O)[C@H](CCC(=O)O)NC(=O)[C@@H]1CCCN1)[C@@H](C)O)C(=O)N[C@@H](CC(C)C)C(=O)O` [compound 542] showed a Degeneracy of 1.

As to `CSCC[C@H](NC(=O)[C@H](CC(=O)O)NC(=O)[C@H](CC(C)C)NC(=O)[C@H](Cc1c[nH]cn1)NC(=O)[C@@H](NC(=O)[C@H](CCC(=O)O)NC(=O)[C@@H]1CCCN1)[C@@H](C)O)C(=O)N[C@@H](CC(C)C)C(=O)N[C@@H](CCCNC(=N)N)C(=O)N[C@@H](Cc1c[nH]cn1)C(=O)N[C@@H](CC(C)C)C(=O)O` [compound 543], the Degeneracy is listed as 1.

The molecule `CC(C)C[C@H](NC(=O)[C@H](CO)NC(=O)[C@H](CCC(N)=O)NC(=O)[C@H](CS)NC(=O)[C@H](CC(=O)O)NC(=O)[C@H](CCC(=O)O)NC(=O)[C@@H](N)CO)C(=O)O` [compound 544] returned a Degeneracy of 1.

Take `C[C@H](NC(=O)[C@H](C)NC(=O)[C@H](CS)NC(=O)[C@H](CCC(N)=O)NC(=O)[C@H](CCC(=O)O)NC(=O)[C@@H](N)Cc1c[nH]cn1)C(=O)NCC(=O)N[C@@H](CS)C(=O)N[C@H](C(=O)O)[C@@H](C)O` [compound 545]: the Degeneracy turned out to be 1.

With `CC(C)[C@H](NC(=O)[C@H](CCC(=O)O)NC(=O)[C@@H](N)CCC(N)=O)C(=O)N[C@H](C(=O)N[C@@H](C)C(=O)N[C@@H](CCC(=O)O)C(=O)N[C@@H](CC(=O)O)C(=O)NCC(=O)N[C@H](C(=O)O)[C@@H](C)O)[C@@H](C)O` [compound 547], the Degeneracy is on record as 1.

As to `CC(C)[C@H](NC(=O)[C@H](CCCNC(=N)N)NC(=O)[C@H](C)NC(=O)[C@H](CS)NC(=O)[C@@H]1CCCN1C(=O)[C@H](CCCCN)NC(=O)[C@H](CO)NC(=O)[C@H](CS)NC(=O)[C@H](CCCCN)NC(=O)[C@H](CCC(=O)O)NC(=O)[C@@H](N)CS)C(=O)O` [compound 549], the Degeneracy stood at 1.

`CC(C)[C@H](NC(=O)[C@H](C)NC(=O)[C@H](CCCNC(=N)N)NC(=O)[C@@H](NC(=O)[C@H](CCC(=O)O)NC(=O)[C@@H](N)CCCNC(=N)N)C(C)C)C(=O)N[C@H](C(=O)O)[C@@H](C)O` [compound 550] gave a Degeneracy of 1.

Molecule `CC[C@H](C)[C@H](NC(=O)[C@H](CCC(=O)O)NC(=O)[C@H](CCC(=O)O)NC(=O)[C@H](CC(C)C)NC(=O)[C@@H](NC(=O)[C@H](CCC(=O)O)NC(=O)[C@@H](N)Cc1ccccc1)[C@@H](C)O)C(=O)O` [compound 551] showed a Degeneracy of 1.

Take `CC[C@H](C)[C@H](NC(=O)[C@H](CCC(=O)O)NC(=O)[C@H](CCC(=O)O)NC(=O)[C@H](CC(C)C)NC(=O)[C@@H](NC(=O)[C@H](CCC(=O)O)NC(=O)[C@@H](N)Cc1ccccc1)[C@@H](C)O)C(=O)N[C@H](C(=O)NCC(=O)N[C@@H](Cc1ccc(O)cc1)C(=O)O)[C@@H](C)O` [compound 552]: the Degeneracy came to 1.

With `CC(C)[C@H](NC(=O)[C@H](CCCNC(=N)N)NC(=O)[C@H](CS)NC(=O)[C@H](CCC(=O)O)NC(=O)[C@H](CCC(=O)O)NC(=O)[C@@H](NC(=O)[C@H](CS)NC(=O)[C@H](CCC(=O)O)NC(=O)[C@@H](N)CCC(N)=O)C(C)C)C(=O)O` [compound 554], the Degeneracy is listed as 1.

`CC(C)C[C@H](NC(=O)[C@@H](NC(=O)[C@H](CCCNC(=N)N)NC(=O)[C@H](CS)NC(=O)[C@H](CCC(=O)O)NC(=O)[C@H](CCC(=O)O)NC(=O)[C@@H](N)C(C)C)C(C)C)C(=O)N[C@@H](CCC(N)=O)C(=O)NCC(=O)O` [compound 555]: the Degeneracy was 1.

Molecule `CC(C)C[C@H](NC(=O)CNC(=O)[C@H](CCC(N)=O)NC(=O)[C@H](CC(C)C)NC(=O)[C@@H](NC(=O)[C@H](CCCNC(=N)N)NC(=O)[C@H](CS)NC(=O)[C@H](CCC(=O)O)NC(=O)[C@@H](N)CCC(=O)O)C(C)C)C(=O)O` [compound 556] gave a Degeneracy of 1.

On to `CC(C)[C@H](NC(=O)[C@H](CO)NC(=O)CNC(=O)[C@H](CC(N)=O)NC(=O)[C@H](CCC(N)=O)NC(=O)[C@@H]1CCCN1C(=O)[C@H](CCC(N)=O)NC(=O)[C@H](CS)NC(=O)[C@H](CCC(=O)O)NC(=O)[C@@H]1CCCN1)C(=O)O` [compound 557], for which the Degeneracy turned out to be 1.

For the molecule `CC(C)C[C@H](NC(=O)[C@H](CCC(=O)O)NC(=O)[C@@H](N)[C@@H](C)O)C(=O)N[C@H](C(=O)N[C@@H](CCC(=O)O)C(=O)N1CCC[C@H]1C(=O)N[C@@H](CC(C)C)C(=O)N[C@H](C(=O)N1CCC[C@H]1C(=O)N[C@@H](CO)C(=O)NCC(=O)O)[C@@H](C)O)C(C)C` [compound 558], the Degeneracy turned out to be 1.

`CSCC[C@H](NC(=O)[C@H](C)NC(=O)CNC(=O)[C@H](CO)NC(=O)[C@@H]1CCCN1C(=O)[C@@H](NC(=O)[C@H](CC(C)C)NC(=O)[C@@H]1CCCN1C(=O)[C@H](CCC(=O)O)NC(=O)[C@@H](N)C(C)C)[C@@H](C)O)C(=O)O` [compound 559] had a Degeneracy of 1.

In the case of `CC(C)C[C@H](NC(=O)[C@@H](NC(=O)[C@H](CCCCN)NC(=O)[C@@H](NC(=O)[C@H](CCCCN)NC(=O)[C@H](CCCNC(=N)N)NC(=O)[C@H](CC(C)C)NC(=O)[C@H](CCC(=O)O)NC(=O)[C@@H](NC(=O)[C@H](CCC(=O)O)NC(=O)[C@@H](N)CCCCN)[C@@H](C)O)C(C)C)C(C)C)C(=O)O` [compound 560], the Degeneracy was 1.

As to `CC(C)C[C@H](NC(=O)[C@H](CCC(=O)O)NC(=O)[C@@H](N)[C@@H](C)O)C(=O)N[C@@H](CCCNC(=N)N)C(=O)N[C@@H](CCCCN)C(=O)N[C@H](C(=O)N[C@@H](CCCCN)C(=O)N[C@H](C(=O)N[C@@H](CC(C)C)C(=O)NCC(=O)O)C(C)C)C(C)C` [compound 561], the Degeneracy was determined as 1.
